Data reported in US4657931A, “N-(acyldipeptidyl)-aminoglycols” (G. D. Searle & Co., priority 1985, dated 1987).

Protein sequences, listed by entry. Tags and fused reporters are not part of them. Residues count along the entry.
UniProt P00797, 67-406 limits assumed: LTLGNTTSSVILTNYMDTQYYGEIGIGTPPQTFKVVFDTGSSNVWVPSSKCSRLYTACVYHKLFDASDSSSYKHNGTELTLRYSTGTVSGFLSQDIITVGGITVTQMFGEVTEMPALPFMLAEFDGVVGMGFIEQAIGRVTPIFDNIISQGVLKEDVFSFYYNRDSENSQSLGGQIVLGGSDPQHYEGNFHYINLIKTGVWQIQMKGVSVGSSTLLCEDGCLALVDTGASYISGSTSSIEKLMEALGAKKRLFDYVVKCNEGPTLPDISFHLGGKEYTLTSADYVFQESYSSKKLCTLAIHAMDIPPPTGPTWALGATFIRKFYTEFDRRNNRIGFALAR

Target: human renin (Homo sapiens, UniProt P00797)
Assay: Human Renin Test (angiotensin I by radioimmunoassay)
Assay type: biochemical
Details: read-out: IC50, human renin inhibition (reference standards); human plasma as angiotensinogen source, 2 h, 37° C., pH 7.5

IC50: 6 µM
SMILES: CC(C)C[C@H](NC(=O)[C@H](Cc1c[nH]cn1)NC(=O)[C@H](Cc1ccccc1)NC(=O)[C@@H]1CCCN1C(=O)[C@H](Cc1c[nH]cn1)NC(=O)[C@@H]1CCCN1)C(=O)N[C@@H](Cc1ccccc1)C(=O)N[C@H](C(=O)N[C@@H](Cc1ccc(O)cc1)C(=O)O)C(C)C
